From PubChem BioAssay AID560 (The Scripps Research Institute Molecular Screening Center, 2006) come the findings set out here.

The chains behind the UniProt entries cited, without tags or fusion partners. Where a name states a change or a piece, a line headed by the entry shows the natural chain unless it says otherwise.
UniProt P35398: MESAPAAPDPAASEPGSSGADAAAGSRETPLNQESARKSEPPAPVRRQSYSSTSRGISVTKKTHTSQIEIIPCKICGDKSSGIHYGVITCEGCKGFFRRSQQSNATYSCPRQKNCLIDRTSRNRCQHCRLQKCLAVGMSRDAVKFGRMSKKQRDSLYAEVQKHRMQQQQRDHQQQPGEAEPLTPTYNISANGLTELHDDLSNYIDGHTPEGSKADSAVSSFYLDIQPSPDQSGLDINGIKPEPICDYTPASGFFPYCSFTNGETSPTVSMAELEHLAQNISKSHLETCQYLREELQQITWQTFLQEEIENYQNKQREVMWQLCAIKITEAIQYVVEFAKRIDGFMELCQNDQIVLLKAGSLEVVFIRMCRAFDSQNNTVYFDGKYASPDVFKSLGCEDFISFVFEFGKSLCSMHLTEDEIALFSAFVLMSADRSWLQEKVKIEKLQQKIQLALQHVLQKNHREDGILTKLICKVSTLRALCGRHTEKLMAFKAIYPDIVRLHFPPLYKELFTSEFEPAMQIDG

The list shows a part of the results, in another mix than the full data. The source made the active and inactive calls.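 The calls were made as follows: active = activation above the mean of all tested compounds plus 3 SD (cut at about 49% in these data); inactive = the rest.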

The target in the experiment is Nuclear receptor ROR-alpha (Homo sapiens) (UniProt P35398). In words: activators of orphan receptor RORA, primary screen, cell-based, luminescence (AID 560).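 Also: 0% = DMSO-treated RORA cells and 100% = added signal equal to DMSO minus mock-transfected cells.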 Particulars: CHO-K1 Gal4-RORA LBD luciferase reporter, at 10 µM, hits give high values, percent increase over mock-subtracted basal signal.
As for `O=C(OC1CN2CCC1CC2)c1cccc(Cl)c1` (stereo not given), the activation is inactive: 14.3%. In the case of `c1nnnn1CCn1cnnn1`, the activation was inactive: -11.1%. The figure for `O=P(Nc1nccs1)(c1ccccc1)c1ccccc1` is inactive: -22.8%; for `O=P1(Nc2nc3ccc(Cl)cc3s2)COc2ccccc2O1` (stereo not given) it is inactive: 10.9%.

Turning to `COC(=O)c1cc2c(s1)N=C(c1ccccc1)N(C)P2(=O)N1CCOCC1` (stereo not given), the activation was inactive: -28.1%. The figure for `Cc1c2non([O-])c-2c(C)[n+](=O)[n+]1[O-]` is inactive: -25.5%. The figure for `CCc1nc2c(n1)c1c(non1O)c1c2no[n+]1[O-]` is inactive: -26%. The figure for `O=C(COc1ccccc1)OC1CN2CCC1CC2` (stereo not given) is inactive: 28.6%. With `COP1(=S)c2c(C)nn(CCC#N)c2N=C(c2ccc(F)cc2)N1C` (stereo not given), the activation is inactive: 4.8%. Turning to `O=C(OC1CN2CCC1CC2)C12CC3CC(CC(C3)C1)C2` (stereo not given), the activation was inactive: 6.1%. In the case of `O=P(Nc1nccs1)(c1ccccc1)c1nc2ccccc2s1` (stereo not given) it was inactive: -21.2%; in that of `CCOP1(=S)c2c(C)nn(CCC#N)c2N=C(c2ccccc2F)N1C` (stereo not given), inactive: -2.9%. The figure for `CCOP1(=S)c2c(C)nn(CCC#N)c2N=C(c2ccc(F)cc2)N1C` (stereo not given) is inactive: -14.8%; for `Cc1cccc(OCC(=O)OC2CN3CCC2CC3)c1` (stereo not given) it is inactive: -5.5%; for `Clc1n[nH]nc1-c1nn[nH][15n]1` it is inactive: -17.4%. In the case of `O=P1(Nc2ccccn2)COc2ccccc2OC1` it was inactive: -7.5%; in that of `Cc1nn(-c2ccccc2)c2c1P(=O)(N1CCOCC1)N(C)C(c1ccccc1)=N2` (stereo not given), inactive: -4.2%; in that of `Cc1ccc(OCC(=O)OC2CN3CCC2CC3)cc1` (stereo not given), inactive: -11.9%.

As for `O=P1(Nc2ccc(Br)cn2)COc2ccccc2OC1`, the activation is inactive: 9.5%. The figure for `O=P1(Nc2ncccn2)COc2ccccc2OC1` is inactive: -29.2%.
